# Values quoted from earlier work, collected in publication PMC10029980 (Journal of medicinal chemistry, 2022).
# Conditions: cited from earlier work
smiles,measurement,value
CC(C)NC(=O)N1CC[C@H](NC2=Nc3cc(F)ccc3N(CC(F)F)c3ccc(Cl)cc32)C1 [NVS-PAK1-1],half-life in rat liver microsomes,short half-life
